For this data set, the system named is COc1cc(C=NN=Cc2cc(OC)c(O)c(OC)c2)cc(OC)c1O. In words: purified protein. The note with it: pH 6.8, 50 mM phosphate, 37°C, 0.2 mM CuSO4.

By Km is commonly meant the concentration of substrate that gives half-maximal velocity. As usually defined, the kcat is the maximal rate divided by the concentration of active sites. As a reminder, the kcat/Km is the second-order rate constant that governs catalysis at low substrate concentration.

For “Klebsiella sp. 601 MCO (multicopper oxidase) (Klebsiella sp. 601; E106F)”, the Km is 1.57 ± 0.02 µM, the kcat was determined as 2.43 ± 0.02 s⁻¹ and the specificity constant (kcat/Km) was 1.5e+06 M⁻¹ s⁻¹.
“Klebsiella sp. 601 MCO (multicopper oxidase) (Klebsiella sp. 601; E369P/L367G/M362G/M368G/M376K/M379P/R361G)”: the Km is 1.46 ± 0.02 µM, the kcat came out at 4.3 ± 0.05 s⁻¹ and the kcat/Km was determined as 2.95e+06 M⁻¹ s⁻¹.

Values taken from publication PMC3123277, “Engineering Klebsiella sp. 601 multicopper oxidase enhances the catalytic efficiency towards phenolic substrates” (BMC Biochemistry, 2011).
